# According to ChEMBL document CHEMBL1149560, “Discovery of a potent CDK2 inhibitor with a novel binding mode, using virtual screening and initial, structure-guided lead scoping” (Bioorg Med Chem Lett, 2007):
# Target: Cyclin-dependent kinase 2 (Homo sapiens, UniProt P24941)
# Experiment: Inhibition of CDK2
row,Compound,IC50
1,C/C(=C1/SC(=N)NC1=O)c1ccc(-c2ccc(S(N)(=O)=O)cc2)o1,30 nM
2,N=C1NC(=O)/C(=C/c2ccc(-c3ccc(C(=O)O)cc3)o2)S1,47000 nM
3,CNS(=O)(=O)c1ccc(-c2ccc(/C=C3\SC(=N)NC3=O)o2)cc1,120 nM
4,N=C1NC(=O)/C(=C/c2ccc(-c3ccc(S(N)(=O)=O)c(C(F)(F)F)c3)o2)S1,610 nM
